This is an account of results in US10166211B1, “Nitric oxide releasing compound, pharmaceutical composition, use and synthesis method thereof” (NATIONAL CHIAO TUNG UNIVERSITY, priority 2017, dated 2019).

The series in a line: Diabetic mouse hindlimb ischemia model, body weight. It is filed as in vivo. To be noted: type 2 diabetic mice with hindlimb ischemia, 7.8 μM, experimental period up to 21st day, FIG. 21. From the text:
In this study, diabetic mice were subjected to hindlimb ischemia surgery. Type 2 diabetic mice (6 in each group) were fixed on the operating table and anesthetized (1-3% isoflurane/100% oxygen at a flow rate of 1 L/min). After the mice were fixed, the areas for surgery were shaved. A 1 cm long incision was cut from the knee along the leg with a surgical knife, the incision was washed with normal saline and cotton, and then the fat tissue around the thigh muscles was removed. After the fat tissue was removed and the femoral artery was exposed, the upper and lower ends of the femoral artery were tied with 7-0 surgical suture to ensure hindlimb ischemia. Finally the wound was washed with normal saline and stitched. After the mice were recovered, they were respectively administrated with 7.8 μM nitric oxide releasing reagents (RRE-1 and VEGF), and the weights of the mice were recorded. The diabetic mice were sacrificed on the 6th and 21st day. The tissue sections of the hindlimbs were taken for immunohistochemistry (IHC). The expression of eNOS, CD31, CD34, MMP-11 and VEGFA were observed respectively. In this experiment, the mice administrated with PBS were the control group.

Turning to VEGF, the “body weights of the diabetic mice” value is given as “steadily increased”.
